We go through 1 compound from ChEMBL document CHEMBL4825735, “Estimation of the lipophilicity of purine-2,6-dione-based TRPA1 antagonists and PDE4/7 inhibitors with analgesic activity” (Bioorg Med Chem Lett, 2021).

A short description of the data set: Lipophilicity, logP of compound by shake flask method. It counts as physicochemical. The conditions noted are these: octanol/water.

`O=c1n(CCCN2CCN(c3cccc(Cl)c3)CC2)nc2ccccn12` [TRAZODONE] registered a lipophilicity (logP) of 2.9.
